Results from PMC13083723 (Patterns, 2026).

Tested on: A549-ACE2 cells
Format: cell-based
Conditions: primary screen, concentration 10 (10 μM), 24 h, tamoxifen 10 μM = 100%

`CCNC(=O)C[C@@H]1N=C(c2ccc(Cl)cc2)c2cc(OC)ccc2-n2c(C)nnc21` [I-BET-762, reference compound] showed a result_KI of 0.2993 percent effect.
